Source: PMC3929130, “Identification of the KDM2/7 Histone Lysine Demethylase Subfamily Inhibitor and its Antiproliferative Activity” (Journal of Medicinal Chemistry, 2013)

Chains of the proteins cited; added tags and fusions are not shown. Lines headed by an entry give the natural chain unless they say otherwise; changes in a name come on top.
UniProt Q9UPP1: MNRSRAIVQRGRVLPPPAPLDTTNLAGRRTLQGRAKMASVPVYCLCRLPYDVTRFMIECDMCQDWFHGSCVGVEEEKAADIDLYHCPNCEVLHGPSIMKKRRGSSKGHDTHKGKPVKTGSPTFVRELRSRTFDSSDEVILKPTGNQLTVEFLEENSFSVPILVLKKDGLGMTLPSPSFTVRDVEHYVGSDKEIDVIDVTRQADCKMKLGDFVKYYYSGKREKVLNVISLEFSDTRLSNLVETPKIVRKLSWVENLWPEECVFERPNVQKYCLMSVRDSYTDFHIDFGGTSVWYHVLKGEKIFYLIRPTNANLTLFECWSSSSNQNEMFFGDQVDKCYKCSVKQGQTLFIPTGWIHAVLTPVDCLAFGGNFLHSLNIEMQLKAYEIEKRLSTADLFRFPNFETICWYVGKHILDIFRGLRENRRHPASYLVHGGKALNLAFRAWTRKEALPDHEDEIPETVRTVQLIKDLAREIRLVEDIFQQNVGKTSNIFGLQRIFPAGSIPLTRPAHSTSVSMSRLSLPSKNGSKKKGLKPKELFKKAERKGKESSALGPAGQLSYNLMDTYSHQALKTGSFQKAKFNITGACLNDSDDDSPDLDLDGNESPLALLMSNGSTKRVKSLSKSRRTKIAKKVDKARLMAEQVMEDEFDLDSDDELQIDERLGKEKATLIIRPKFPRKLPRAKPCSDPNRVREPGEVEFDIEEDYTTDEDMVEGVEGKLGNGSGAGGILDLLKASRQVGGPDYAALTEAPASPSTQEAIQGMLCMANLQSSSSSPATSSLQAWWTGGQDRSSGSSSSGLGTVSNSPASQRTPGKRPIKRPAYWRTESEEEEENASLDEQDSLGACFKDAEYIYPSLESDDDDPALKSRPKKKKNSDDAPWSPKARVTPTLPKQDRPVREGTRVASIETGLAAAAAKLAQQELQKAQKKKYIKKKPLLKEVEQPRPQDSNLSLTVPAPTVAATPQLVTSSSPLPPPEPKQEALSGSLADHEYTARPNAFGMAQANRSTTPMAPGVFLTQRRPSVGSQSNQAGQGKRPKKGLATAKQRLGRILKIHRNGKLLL

Target: KDM7B (Homo sapiens, UniProt Q9UPP1)
Test: KDM7B inhibition assay (MALDI-TOF MS, H3K4me3K9me2 peptide)
Format: biochemical
Conditions: means of two experiments

CN(C)NC(=O)CCC(=O)O [compound 4, daminozide]
pIC50: 4.72

pIC50: −log10 of the molar value.
